Earlier results, collected in patent US20240377385A1, “METHODS AND COMPOSITIONS OF MATTER FOR TREATING CANCER AND PREDICTING RESPONSE TO THERAPY” (ICCA INC., priority 2023, published 2024).

Conditions: cited from earlier work

For interleukin 2, the “Mean plasma ascorbic acid levels” value (after the first phase of treatment with high-dose interleukin 2 alone, 11 patients) is given as 0.13 ± 0.08 mg/dL, the “drop of mean plasma ascorbic acid levels” value (after the first phase of treatment with high-dose interleukin 2 alone) is given as 80% and the “plasma ascorbic acid levels, undetectable” value (in eight of 11 patients during the remainder of the treatment) is given as “less than 0.05 mg/dl”. The “plasma ascorbic acid levels” value (throughout the remainder of the treatment (interleukin 2 plus lymphokine-activated killer cells)) was 0.08 to 0.13 mg/dL.
